These are literature values, as cited in patent publication US5422118A, “Transdermal administration of amines with minimal irritation and high transdermal flux rate” (priority 1992, dated 1995).

For this data set the following is noted: human, in vivo; cited from earlier work.

Consider `CN(C)CC[C@@H](c1ccc(Br)cc1)c1ccccn1` [dexbrompheniramine], for which the Clearance is 308 mL/min.
